This is a selection; strong and weak results do not stand in their true shares. Some salts and complexes are drawn in separate pieces, as the source files them; their charges need not balance. The source made the active and inactive calls. Calls follow the shape of the dose curve; as a rule, active = well fitted inhibition curve with a large enough effect; inconclusive = small, poorly fitted or top-dose-only effect; inactive = no such curve, though single readings can be large or run the other way.
Molecular target: Rap guanine nucleotide exchange factor 4 (Homo sapiens) (UniProt Q8WZA2)
Assay: qHTS for Antagonist of cAMP-regulated guanine nucleotide exchange factor 2 (EPAC2): primary screen; also: nearly all actives have a fitted effect of over 45% in size
Details: EPAC2 GEF exchange of Rap1B-BODIPY-GDP, fluorescence; at 114 µM (top of the series) unless noted
From the text: In multi-cellular eukaryotic organisms, the effects of cAMP are transduced by two ubiquitously-expressed intracellular cAMP receptors, the classic protein kinase A/cAMP-dependent protein kinase (PKA/cAPK) and the more recently discovered exchange protein directly activated by cAMP/cAMP-regulated guanine nucleotide exchange factor (EPAC/cAMP-GEF). Both PKA and EPAC are ubiquitously expressed in all tissues, and an increase in intracellular cAMP levels will lead to the activation of both PKA and EPAC. Therefore, careful dissections of the individual role and relative contribution of EPAC and PKA within the overall cAMP signaling in various model systems are critical for further elucidating the mechanism of cAMP signaling. To date no EPAC-specific antagonists and agonist, as well as isoform-specific agonists have been reported, and developing EPAC-specific pharmacological probes to determine the physiological functions that EPAC play in the overall cAMP-mediated signaling remains a major challenge within the research field. Furthermore, identified regulators of EPAC may lead to new mechanism-based therapeutic strategies specifically targeting the EPAC / cAMP-signaling components as EPAC has been implicated to play important roles in major human pathological conditions such as diabetes, heart disease, and cancer.
This qHTS will be used to screen the Molecular Libraries Small Molecule Repository (MLSMR) as a concentration-titration series using the NCGC unique quantitative screening (qHTS) platform to find inhibitors for EPAC2. In addition, this assay will also be used as a counterscreen for the EPAC1 qHTS. This fluorescent based assay is developed and validated for EPAC2 that measures exchange using EPAC effector Rap1 complex with BODIPY-GDP, a GDP analog with a tethered fluorophores. Inhibitors are identified by monitoring the change in fluorescence signal as the exchanged free BODIPY-GDP has a reduced fluorescence compared to Rap1-bound BODIPY-GDP. Decrease in signal (inhibition) is the desired outcome for the EPAC2 antagonist while no activity in this assay is desired for the EPAC1 antagonist counterscreen.
NIH Chemical Genomics Center [NCGC]
NIH Molecular Libraries Probe Centers Network [MLPCN]
Assay Submitter (PI): Xiaodong Cheng, The University of Texas, Medical Branch
Briefly, three uL of reagents (100 nM EPAC2, 250 nM RAP1B-BODIPY-GDP, 50 uM GDP) were dispensed into a 1536-well Greiner black solid-bottom medium binding assay plate. Controls and test compounds (23 nL) were transferred to the plate via a Kalypsys pin tool equipped with a 1536-pin array. The plates were centrifuged at 1,000 rpm for 15 seconds followed by 5 minute incubation at room temperature. The assay plates were read at 5 minute intervals for 30 minutes in the ViewLux plate reader using 480nm excitation and 540nm emission filters. The results were normalized to the agonist positive control ATA and DMSO.
% is scaled to controls: 0 for no effect and ±100 for the full control effect.

The chains behind the UniProt entries cited, without tags or fusion partners.
UniProt Q8WZA2, whole entry: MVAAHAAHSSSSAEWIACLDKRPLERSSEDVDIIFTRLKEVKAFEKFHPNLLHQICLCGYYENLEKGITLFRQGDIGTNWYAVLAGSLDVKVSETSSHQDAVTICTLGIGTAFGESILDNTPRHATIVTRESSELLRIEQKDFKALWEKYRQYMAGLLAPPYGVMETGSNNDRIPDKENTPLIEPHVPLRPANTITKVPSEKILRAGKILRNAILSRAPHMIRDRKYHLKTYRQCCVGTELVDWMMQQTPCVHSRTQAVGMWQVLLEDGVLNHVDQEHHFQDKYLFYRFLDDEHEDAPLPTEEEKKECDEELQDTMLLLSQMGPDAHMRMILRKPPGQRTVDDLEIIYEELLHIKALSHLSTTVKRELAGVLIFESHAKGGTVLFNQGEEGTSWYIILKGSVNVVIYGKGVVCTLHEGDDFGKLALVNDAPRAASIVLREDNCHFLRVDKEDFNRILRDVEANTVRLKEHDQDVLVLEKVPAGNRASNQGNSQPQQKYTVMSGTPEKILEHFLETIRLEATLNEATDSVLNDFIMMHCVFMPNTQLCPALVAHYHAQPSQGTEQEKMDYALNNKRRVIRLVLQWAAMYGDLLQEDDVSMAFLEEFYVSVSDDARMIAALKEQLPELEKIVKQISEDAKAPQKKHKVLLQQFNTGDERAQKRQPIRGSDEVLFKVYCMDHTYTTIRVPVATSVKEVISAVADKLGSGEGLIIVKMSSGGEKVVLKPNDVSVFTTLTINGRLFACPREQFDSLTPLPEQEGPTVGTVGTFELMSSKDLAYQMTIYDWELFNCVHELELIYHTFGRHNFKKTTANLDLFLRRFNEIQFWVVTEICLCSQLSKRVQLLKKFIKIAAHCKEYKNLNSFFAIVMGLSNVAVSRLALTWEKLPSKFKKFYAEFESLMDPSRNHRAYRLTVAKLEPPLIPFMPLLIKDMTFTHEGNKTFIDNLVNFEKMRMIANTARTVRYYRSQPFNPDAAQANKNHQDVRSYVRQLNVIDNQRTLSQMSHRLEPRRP

| SMILES | activity, negative = inhibition |
| --- | --- |
| CN1CCC(Nc2cccc(F)c2)CC1 | inactive: 11% |
| COc1ccc2c(c1O)-c1c(O)c(OC)cc3c1[C@H](C2)[N+](C)(C)CC3.O=[N+]([O-])c1cc([N+](=O)[O-])c([O-])c([N+](=O)[O-])c1[O-] | inactive: -2.95% |
| O=C(NCC1(N2CCCCC2)CCCCC1)c1cncc(Br)c1 | inactive: 6.17% |
| O=C(OC1CN2CCC1CC2)c1ccc([N+](=O)[O-])cc1 (stereo not drawn) | inactive: 3.64% |
| Cc1ccc(C(=O)NCC2(N(C)C)CCCCC2)o1 | inactive: -15.3% |
| CCCOc1ccc(C(=O)NCC2(N(C)C)CCCCC2)cc1OC | inactive: 1.7% |
| O=[N+]([O-])c1cc([N+](=O)[O-])c(Nc2ccc(Cl)cc2)c([N+](=O)[O-])c1 | inactive: -29% |
| COc1ccc(C(c2nnnn2C2CCCC2)N2CCC(n3c(=O)[nH]c4ccccc43)CC2)cc1 (stereo not drawn) | inactive: -4.41% |
| COc1ccc(CN(CCCl)CCCl)cc1Cl | inactive: -7.49% |
| O=[N+]([O-])c1cc([N+](=O)[O-])c(OC2CCCCC2O)c([N+](=O)[O-])c1 (stereo not drawn) | inactive: -4.19% |
| CN(C)c1cccc(C(=O)NCC2(N3CCCCC3)CCCCC2)c1 | inactive: 12.1% |
| CCCCn1nnnc1C(c1ccccc1OC(F)(F)F)N1CCC(n2c(=O)[nH]c3ccccc32)CC1 (stereo not drawn) | inactive: -24% |
| CC(C)c1ccc(NC2CCN(C(=O)OC(C)(C)C)CC2)cc1 | inactive: -14.6% |
| CCCCn1nnnc1C(c1ccnc2ccccc12)N1CCC(n2c(=O)[nH]c3ccccc32)CC1 (stereo not drawn) | inactive: -0.422% |
| COc1cc(OC)c(C(=O)NCC2(N(C)C)CCCCC2)cc1OC | inactive: -2.51% |
| O=C(NCC1(N2CCOCC2)CCCCC1)c1cc(F)c(F)cc1Cl | inactive: 2.05% |
| CCN(CC)CCCNc1ccccc1[N+](=O)[O-].O=[N+]([O-])c1cc([N+](=O)[O-])c(O)c([N+](=O)[O-])c1 | inactive: -16% |
| O=C(NCC1(N2CCCCC2)CCCCC1)c1cccc(C(F)(F)F)c1 | inactive: -3.98% |
| O=[N+]([O-])c1cc([N+](=O)[O-])c(NCC2CCS(=O)(=O)C2)c([N+](=O)[O-])c1 (stereo not drawn) | inactive: 11.3% |
| CN1CCN(CCOC(=O)C(O)(c2ccccc2)c2ccccc2)CC1 | inactive: -1.82% |

| SMILES | activity, negative = inhibition |
| --- | --- |
| CC(C)c1ccc(C(=O)NCC2(N3CCOCC3)CCCCC2)cc1 | inactive: 10.5% |
| COc1ccc(NC2CCN(C(=O)OC(C)(C)C)CC2)cc1 | inactive: 0.61% |
| CCCCn1nnnc1C(c1cccc2ccccc12)N1CCC(n2c(=O)[nH]c3ccccc32)CC1 (stereo not drawn) | inactive: -11.8% |
| COc1cc(C(=O)NCC2(N3CCCCC3)CCCCC2)ccc1OC(F)F | inactive: -2.38% |
| O=C(NCC1(N2CCOCC2)CCCCC1)c1cc(=O)[nH]c2ccccc12 | inactive: 1.83% |
| O=C(NCC1(N2CCCCC2)CCCCC1)c1ccc(OC(F)F)cc1 | inactive: 3.07% |
| O=C(NCC1(N2CCCCC2)CCCCC1)c1cccc([N+](=O)[O-])c1 | inactive: 4.56% |
| CSc1ccc(C(=O)NCC2(N3CCOCC3)CCCCC2)cc1 | inactive: 5.66% |
| CCN1CCC(Nc2ccc(Cl)cc2)CC1 | inactive: -9.07% |
| N#CC1(Nc2ccccc2)CCN(CCc2ccccc2)CC1 | inactive: -1.38% |
| O=c1[nH]c2ccccc2n1C1CCN(C(c2ccccc2)c2nnnn2C2CCCCC2)CC1 (stereo not drawn) | inactive: -4.83% |
| O=c1[nH]c2ccccc2n1C1CCN(C(c2cccc3ccccc23)c2nnnn2C2CCCC2)CC1 (stereo not drawn) | inactive: -16.4% |
| CCOC(=O)N1CCC(Nc2cccc(C)c2)CC1 | inactive: -2.47% |
| COc1cc(C(=O)NCC2(N(C)C)CCCCC2)ccc1OC(F)F | inactive: 3.64% |
| CCOc1ccc(C)cc1CN(CCCl)CCCl | inactive: 4.31% |
| CC(C)(C)n1nnnc1C(c1ccccc1)N1CCC(n2c(=O)[nH]c3ccccc32)CC1 (stereo not drawn) | inactive: 0.0323% |
| O=C1CCN(Cc2ccccc2)CC1 | inactive: 14.4% |
| O=P1(N(CCCl)CCCl)SCCCS1 | inactive: 1.79% |
| CCCCOc1ccc(C(=O)NCC2(N3CCOCC3)CCCCC2)cc1 | inactive: -6.65% |
| O=C(NCC1(N2CCCCC2)CCCCC1)c1ccc(F)cc1 | inactive: 4.57% |

| SMILES | activity, negative = inhibition |
| --- | --- |
| COc1ccc(NC2CCN(CCc3ccccc3)CC2)c(OC)c1 | inactive: -4.83% |
| CCOC(=O)N1CCC(Nc2ccc(F)cc2)CC1 | inactive: 0.142% |
| O=C(NCC1(N2CCOCC2)CCCCC1)c1cc2ccccc2o1 | inactive: -2.36% |
| O=C(NCC1(N2CCCCC2)CCCCC1)c1ccc(Cl)nc1 | inactive: 19.6% |
| O=c1[nH]c2ccccc2n1C1CCN(C(c2ccccc2OC(F)(F)F)c2nnnn2C2CCCCC2)CC1 (stereo not drawn) | inactive: -19% |
| Cc1cc(C)cc(N(C(=O)c2ccccc2)C2CCN(C(=O)OC(C)(C)C)CC2)c1 | inactive: -14.4% |
| CCOC(=O)N1CCC(Nc2ccc(OC)cc2)CC1 | inactive: 1.11% [at 57.1 µM] |
| CCCCn1nnnc1C(c1ccc(OC)cc1)N1CCC(n2c(=O)[nH]c3ccccc32)CC1 (stereo not drawn) | inactive: -12.9% |
| O=C(NCC1(N2CCCCC2)CCCCC1)c1ccc(Cl)s1 | inactive: -1.26% |
| N#CC1(Nc2ccccc2)CCN(Cc2ccccc2)CC1 | inactive: 11.4% |
| O=C(OC1CN2CCC1CC2)C1c2ccccc2Oc2ccccc21 (stereo not drawn) | inactive: 14.2% |
| O=c1[nH]c2ccccc2n1C1CCN(C(c2cc3ccccc3o2)c2nnnn2C2CCCCC2)CC1 (stereo not drawn) | inactive: -18% |
| COc1ccc(Cl)cc1C(=O)NCC1(N2CCOCC2)CCCCC1 | inactive: 13.8% |
| O=C1C(O)=C([N+](=O)[O-])C(=O)C(O)=C1[N+](=O)[O-] | inactive: 11.1% |
| O=C(NCC1(N2CCCCC2)CCCCC1)c1ccc(=O)[nH]c1 | inactive: 2.73% |
| O=C(NCC1(N2CCCCC2)CCCCC1)c1cccs1 | inactive: -27.6% |
| CCCCn1nnnc1C(CC)N1CCC(n2c(=O)[nH]c3ccccc32)CC1 (stereo not drawn) | inactive: 7.75% |
| CCCCn1nnnc1C(c1cccs1)N1CCC(n2c(=O)[nH]c3ccccc32)CC1 (stereo not drawn) | inactive: -20.9% |
